According to patent US20260207614A1, “IRAK4 DEGRADERS AND USES THEREOF” (Kymera Therapeutics, Inc., priority 2022, published 2026):

Legend:
[1] = rat NOAEL vs predicted human AUC
[2] = dog NOAEL vs predicted human AUC

SMILES: Cn1c(=O)n([C@@H]2CCC(=O)NC2=O)c2cccc(C#CCOC3CCN(C[C@H]4CC[C@H](n5cc(NC(=O)c6cnn7ccc(N8C[C@H]9C[C@@H]8CO9)nc67)c(C(F)F)n5)CC4)CC3)c21 [Compound A, 5-((1R,4R)-2-oxa-5-azabicyclo[2.2.1]heptan-5-yl)-N-(3-(difluoromethyl)-1-((1r,4R)-4-((4-((3-(1-(2,6-dioxopiperidin-3-yl)-3-methyl-2-oxo-2,3-dihydro-1H-benzo[d]imidazol-4-yl)prop-2-yn-1-yl)oxy)piperidin-1-yl)methyl)cyclohexyl)-1H-pyrazol-4-yl)pyrazolo[1,5-a]pyrimidine-3-carboxamide]
- exposure safety margin for the starting dose of 25 mg based on AUC at NOAEL [1]: 79 fold
- exposure safety margin for the starting dose of 25 mg based on AUC at NOAEL [2]: 159 fold

Where two headings read alike, the source gives them in different places.
